Results reported in US20070191324A1, “Methods for treatment or prophylaxis of aldosterone-mediated pathogenic effects in a subject using an epoxy-steroidal aldosterone antagonist” (priority 1999, published 2007).

Amino acid sequences for entries named in this document (tags omitted). A change or cut given only in a name is not applied to a line headed by its entry.
UniProt P01019: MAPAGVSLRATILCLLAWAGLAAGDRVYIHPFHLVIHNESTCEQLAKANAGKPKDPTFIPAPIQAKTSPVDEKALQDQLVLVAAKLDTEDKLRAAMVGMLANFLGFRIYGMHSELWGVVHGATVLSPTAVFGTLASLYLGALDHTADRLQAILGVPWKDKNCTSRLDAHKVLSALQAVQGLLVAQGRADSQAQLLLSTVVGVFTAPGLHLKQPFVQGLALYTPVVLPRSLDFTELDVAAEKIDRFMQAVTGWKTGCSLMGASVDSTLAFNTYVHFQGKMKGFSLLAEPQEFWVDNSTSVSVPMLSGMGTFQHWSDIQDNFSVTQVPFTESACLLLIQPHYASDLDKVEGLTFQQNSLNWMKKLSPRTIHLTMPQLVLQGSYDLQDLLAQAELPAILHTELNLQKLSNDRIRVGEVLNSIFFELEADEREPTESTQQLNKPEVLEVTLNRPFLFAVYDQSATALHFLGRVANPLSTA

Test system: captopril-treated saline-drinking SHRSP
Experiment: Angiotensin II-induced renal damage in captopril-treated saline-drinking SHRSP, Protocol 2 (Example A-8)
Assay type: in vivo, rat (SHRSP/A3N)
Conditions: captopril 50 mg/kg/d; angiotensin II 25 ng/min; eplerenone 100 mg/kg/d
Method: Animals. Studies were conducted in accordance with institutional guidelines using male SHRSP/A3N (generations F-75 to F-78), n=37, from our local colony. These animals were bred from NIH stock, derived from the SHRSP/A3N substrain described originally by Okamoto and coworkers (Okamoto K et al. Circ. Res. 34 and 35 (suppl I):I-143-I-153.). All animals were housed in a room maintained on a 12:12-h light:dark-cycle and an ambient temperature of 22±1° C. in the Animal Care Facility at New York Medical College. Rats were weaned at 4 weeks of age and allowed free access to Purina Lab Chow 5001 (Ralston Purina, St. Louis, Mo.) and tap water until the initiation of experimental protocols.
SHRSP were placed on Stroke-Prone Rodent Diet (#39-288, Zeigler Bros Inc., Gardners, Pa.) and 1% NaCl drinking solution ad libitum starting at 8.3 weeks of age. […] Systolic blood pressure and heart rate were measured each week. […]
Assays and Analyses. Systolic blood pressure and heart rate of awake animals were measured by tail-cuff plethysmography using a Natsume KN-210 manometer and tachometer (Peninsula Laboratories Inc., Belmont, Calif.). […] Urinary protein concentration was determined by the sulfosalicylic acid turbidity method. Plasma aldosterone was measured by radioimmunoassay using ^125I-aldosterone as a tracer (Coat-a Count Aldosterone, Diagnostic Products Co., Los Angeles, Calif.). […]

Substance: Angiotensin II: Angiotensin II (human type) infused by osmotic minipump (DRVYIHPF; Angiotensin-2; UniProt P01019 25-32, looked up)
- preterminal systolic blood pressure: 224±4 mm Hg
